# PubChem BioAssay AID588664 (The Scripps Research Institute Molecular Screening Center, 2011)
# Sequences of proteins named here, by UniProt entry; tags and fusion partners are left off.
# UniProt P00519, whole entry, looked up: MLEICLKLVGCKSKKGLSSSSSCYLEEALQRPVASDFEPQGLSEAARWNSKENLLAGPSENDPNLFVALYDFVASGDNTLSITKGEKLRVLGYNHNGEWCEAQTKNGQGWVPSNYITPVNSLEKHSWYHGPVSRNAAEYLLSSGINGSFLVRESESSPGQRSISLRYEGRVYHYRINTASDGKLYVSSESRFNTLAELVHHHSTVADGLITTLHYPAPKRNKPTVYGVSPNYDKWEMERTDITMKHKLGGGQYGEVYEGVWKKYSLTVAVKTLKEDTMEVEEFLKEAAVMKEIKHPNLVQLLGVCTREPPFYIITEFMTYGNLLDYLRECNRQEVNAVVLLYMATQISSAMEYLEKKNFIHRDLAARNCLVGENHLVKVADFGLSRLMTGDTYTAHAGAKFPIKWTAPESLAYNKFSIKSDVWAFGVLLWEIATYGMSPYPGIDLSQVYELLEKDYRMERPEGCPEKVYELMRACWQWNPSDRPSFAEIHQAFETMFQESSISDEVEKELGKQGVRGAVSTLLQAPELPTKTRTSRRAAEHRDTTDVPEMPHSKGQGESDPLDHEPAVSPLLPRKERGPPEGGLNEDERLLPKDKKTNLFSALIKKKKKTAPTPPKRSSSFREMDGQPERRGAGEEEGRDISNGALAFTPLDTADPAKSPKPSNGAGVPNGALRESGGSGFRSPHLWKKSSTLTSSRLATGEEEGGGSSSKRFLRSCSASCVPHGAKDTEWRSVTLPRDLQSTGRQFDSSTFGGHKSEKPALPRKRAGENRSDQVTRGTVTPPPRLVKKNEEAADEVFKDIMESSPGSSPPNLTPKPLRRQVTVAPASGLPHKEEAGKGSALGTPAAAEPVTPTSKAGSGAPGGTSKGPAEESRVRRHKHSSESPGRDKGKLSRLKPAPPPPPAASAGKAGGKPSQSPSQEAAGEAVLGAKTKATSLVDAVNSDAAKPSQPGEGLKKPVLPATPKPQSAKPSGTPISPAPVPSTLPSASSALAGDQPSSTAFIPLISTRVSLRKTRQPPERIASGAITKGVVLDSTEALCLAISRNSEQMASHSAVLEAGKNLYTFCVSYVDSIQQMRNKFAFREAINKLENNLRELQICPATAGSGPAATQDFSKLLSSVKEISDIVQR
# UniProt Q13671, whole entry, looked up: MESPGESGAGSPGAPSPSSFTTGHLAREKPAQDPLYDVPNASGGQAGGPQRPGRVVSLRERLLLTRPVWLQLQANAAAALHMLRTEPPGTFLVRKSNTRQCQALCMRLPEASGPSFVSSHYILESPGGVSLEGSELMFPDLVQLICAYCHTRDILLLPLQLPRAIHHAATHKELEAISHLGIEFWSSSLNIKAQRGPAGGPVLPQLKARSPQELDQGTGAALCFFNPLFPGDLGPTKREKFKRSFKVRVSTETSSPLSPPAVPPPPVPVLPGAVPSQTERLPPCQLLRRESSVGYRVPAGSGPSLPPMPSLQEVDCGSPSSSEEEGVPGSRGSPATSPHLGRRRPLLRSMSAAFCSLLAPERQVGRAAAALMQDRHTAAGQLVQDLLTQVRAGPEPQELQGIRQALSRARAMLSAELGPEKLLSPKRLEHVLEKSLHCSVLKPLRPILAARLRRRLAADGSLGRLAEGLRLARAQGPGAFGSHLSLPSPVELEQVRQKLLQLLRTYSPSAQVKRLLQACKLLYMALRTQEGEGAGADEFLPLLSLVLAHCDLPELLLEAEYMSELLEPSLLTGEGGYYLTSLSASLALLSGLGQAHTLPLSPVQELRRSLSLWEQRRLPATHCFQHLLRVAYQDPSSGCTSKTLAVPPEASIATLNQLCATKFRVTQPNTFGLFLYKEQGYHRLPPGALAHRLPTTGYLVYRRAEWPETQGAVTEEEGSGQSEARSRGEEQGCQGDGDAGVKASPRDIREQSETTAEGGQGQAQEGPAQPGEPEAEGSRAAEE
# The list shows a part of the results, in another mix than the full data. Active and inactive are the calls of the source. Cut-off read from the data, not from the text of the source: active = inhibition above about 5% (passing the limit was not always enough); inactive = the rest.
# Molecular target: Tyrosine-protein kinase ABL1 (Homo sapiens) + Ras and Rab interactor 1 (Homo sapiens) (UniProt P00519+Q13671)
# Assay: disruptors of human Abl and Rin1 association – biochemical, TR-FRET, primary screen (AID 588664)
# Conditions: TR-FRET Rin1/Abl binding, at 7.35 µM, active compounds read high
row,SMILES,inhibition
1,Cc1ccccc1NC1(C#N)CCN(Cc2ccccc2)CC1,inactive: 0.28%
2,COc1ccc(C(c2nnnn2C2CCCCC2)N2CCC(n3c(=O)[nH]c4ccccc43)CC2)cc1 (stereo unspecified),inactive: 10.1%
3,CCN1CCC(Nc2cccc(F)c2)CC1,inactive: 0.36%
4,CC(C)(C)n1nnnc1C(c1ccnc2ccccc12)N1CCC(n2c(=O)[nH]c3ccccc32)CC1 (stereo unspecified),inactive: 1.68%
5,O=C(NCC1(N2CCCCC2)CCCCC1)c1ccco1,inactive: 0.38%
6,CN(C)c1ccc(C(=O)NCC2(N3CCCCC3)CCCCC2)cc1,inactive: 2.22%
7,Cn1c(=O)[nH]cc(N(CCCl)CCCl)c1=O,inactive: 1.55%
8,COc1cc(OC)cc(C(=O)NCC2(N3CCCCC3)CCCCC2)c1,inactive: 2.12%
9,O=c1[nH]c2ccccc2n1C1CCN(C(c2ccnc3ccccc23)c2nnnn2C2CCCCC2)CC1 (stereo unspecified),inactive: 7.4%
10,CC(=O)N(c1ccccc1)C1CCNCC1,inactive: 0.59%
11,CCC(c1nnnn1C1CCCCC1)N1CCC(n2c(=O)[nH]c3ccccc32)CC1 (stereo unspecified),active: 52.3%
12,Cc1ccc(NC2(C#N)CCN(Cc3ccccc3)CC2)cc1,inactive: 1.11%
13,Cc1ccc(C(=O)NCC2(N3CCCCC3)CCCCC2)o1,inactive: 2.15%
14,Fc1ccccc1NC1CCN(Cc2ccccc2)CC1,inactive: 4.45%
15,CCC(CO)(C(=O)OC1CN2CCC1CC2)c1ccccc1 (stereo unspecified),inactive: 3.41%
16,COc1cccc(C(=O)N(c2cc(C)cc(C)c2)C2CCN(C(=O)OC(C)(C)C)CC2)c1,inactive: 2.59%
17,COc1cc(OC)cc(C(=O)NCC2(N3CCOCC3)CCCCC2)c1,inactive: 0.45%
18,COc1cccc(C(c2nnnn2C2CCCC2)N2CCC(n3c(=O)[nH]c4ccccc43)CC2)c1OC (stereo unspecified),inactive: 7.59%
19,CN1CCC(Nc2ccc(Cl)cc2)CC1,inactive: 1.19%
20,CCOc1ncccc1C(=O)NCC1(N2CCOCC2)CCCCC1,inactive: -0.98%
21,CN1CCC(Nc2ccc(F)c(Cl)c2)CC1,inactive: -0.39%
22,O=c1[nH]c2ccccc2n1C1CCN(C(c2cc3ccccc3o2)c2nnnn2C2CCCC2)CC1 (stereo unspecified),inactive: 8.4%

row,SMILES,inhibition
1,CCCOc1ccc(C(=O)NCC2(N(C)C)CCCCC2)cc1,inactive: 0.93%
2,CC(C)(C)OC(=O)N1CCC(Nc2ccccc2)CC1,inactive: 0.66%
3,O=C(O)C1(Nc2ccccc2)CCN(Cc2ccccc2)CC1,inactive: 4.33%
4,N/C(=N\O)c1c(N)no[n+]1[O-],inactive: 0.49%
5,CCOC(=O)N1CCC(Nc2ccc(C)cc2)CC1,inactive: -0.64%
6,COc1cccc(C(c2nnnn2C(C)(C)C)N2CCC(n3c(=O)[nH]c4ccccc43)CC2)c1OC (stereo unspecified),inactive: 10.8%
7,CCCCn1nnnc1C(c1cccc(OC)c1OC)N1CCC(n2c(=O)[nH]c3ccccc32)CC1 (stereo unspecified),inactive: 10.3%
8,O=C(OC1CN2CCC1CC2)C1c2ccccc2C=Cc2ccccc21 (stereo unspecified),inactive: -1.46%
9,O=c1[nH]c2ccccc2n1C1CCN(C(c2cccs2)c2nnnn2C2CCCC2)CC1 (stereo unspecified),inactive: 6.99%
10,O=C(NCC1(N2CCOCC2)CCCCC1)c1cc(Br)ccc1Cl,inactive: -0.26%
11,CCCCn1nnnc1C(c1ccccc1)N1CCC(n2c(=O)[nH]c3ccccc32)CC1 (stereo unspecified),inactive: 4.04%
12,COc1cc(C(=O)NCC2(N3CCOCC3)CCCCC2)cc(OC)c1C,inactive: 2.36%
13,COc1ccc(C(=O)NCC2(N3CCOCC3)CCCCC2)cc1OC,inactive: -0.98%
14,O=c1[nH]c2ccccc2n1C1CCN(C(c2ccnc3ccccc23)c2nnnn2C2CCCC2)CC1 (stereo unspecified),inactive: 3.71%
15,O=c1[nH]c2ccccc2n1C1CCN(C(c2cccs2)c2nnnn2C2CCCCC2)CC1 (stereo unspecified),active: 27.4%
16,c1ccc(CN2CCC(Nc3ccccc3)CC2)cc1,inactive: -0.24%
17,CCCN1CCC(Nc2cc(OC)cc(OC)c2)CC1,inactive: 0.36%
18,O=c1[nH]c2ccccc2n1C1CCN(C(c2ccccc2)c2nnnn2C2CCCC2)CC1 (stereo unspecified),inactive: 7.02%
19,Cc1cc(N(CCCl)CCCl)ccc1C=O,inactive: 5.71%
20,CN(C)C1(CNC(=O)c2cccc(C#N)c2)CCCCC1,inactive: 2.18%
21,CC(C)(C)n1nnnc1C(c1cccc2ccccc12)N1CCC(n2c(=O)[nH]c3ccccc32)CC1 (stereo unspecified),inactive: 4.2%
22,CC(C)(C)OC(=O)N1CCC(N(C(=O)c2ccccc2)c2ccc(Cl)cc2)CC1,inactive: -1.52%

row,SMILES,inhibition
1,N#Cc1ccc(C(=O)NCC2(N3CCCCC3)CCCCC2)cc1,inactive: 1.08%
2,O=C(NCC1(N2CCCCC2)CCCCC1)c1cccc(C(F)(F)F)c1,inactive: 3.62%
3,COc1ccc(NC2CCN(C(=O)OC(C)(C)C)CC2)cc1,inactive: 0.23%
4,CC(C)c1ccc(C(=O)NCC2(N3CCOCC3)CCCCC2)cc1,inactive: 0.27%
5,CN1CCN(CCOC(=O)C(O)(c2ccccc2)c2ccccc2)CC1,inactive: -0.02%
6,CCCCn1nnnc1C(c1cccc2ccccc12)N1CCC(n2c(=O)[nH]c3ccccc32)CC1 (stereo unspecified),inactive: -1.32%
7,O=C(NCC1(N2CCOCC2)CCCCC1)c1cc(=O)[nH]c2ccccc12,inactive: -0.79%
8,COc1cc(C(=O)NCC2(N3CCCCC3)CCCCC2)ccc1OC(F)F,inactive: 2.1%
9,CC(C)(C)n1nnnc1C(c1ccccc1OC(F)(F)F)N1CCC(n2c(=O)[nH]c3ccccc32)CC1 (stereo unspecified),inactive: 2.77%
10,O=C(NCC1(N2CCCCC2)CCCCC1)c1ccc(OC(F)F)cc1,inactive: 1.45%
11,O=C(NCC1(N2CCCCC2)CCCCC1)c1cccc([N+](=O)[O-])c1,inactive: 0.69%
12,CSc1ccc(C(=O)NCC2(N3CCOCC3)CCCCC2)cc1,inactive: 5.38%
13,CCN1CCC(Nc2ccc(Cl)cc2)CC1,inactive: -1.16%
14,O=c1[nH]c2ccccc2n1C1CCN(C(c2ccccc2OC(F)(F)F)c2nnnn2C2CCCC2)CC1 (stereo unspecified),inactive: 0.17%
15,N#CC1(Nc2ccccc2)CCN(CCc2ccccc2)CC1,inactive: 3.52%
16,CN1CCC(Nc2cccc(F)c2)CC1,inactive: -2.28%
17,O=C(NCC1(N2CCCCC2)CCCCC1)c1cncc(Br)c1,inactive: 0.64%
18,Cc1ccc(C(=O)NCC2(N(C)C)CCCCC2)o1,inactive: -3.4%
19,CCCOc1ccc(C(=O)NCC2(N(C)C)CCCCC2)cc1OC,inactive: 6%
20,COc1ccc(C(c2nnnn2C2CCCC2)N2CCC(n3c(=O)[nH]c4ccccc43)CC2)cc1 (stereo unspecified),inactive: 4.67%
21,COc1ccc(CN(CCCl)CCCl)cc1Cl,inactive: 3.6%
22,CN(C)c1cccc(C(=O)NCC2(N3CCCCC3)CCCCC2)c1,inactive: -1.57%

row,SMILES,inhibition
1,CCCCn1nnnc1C(c1ccccc1OC(F)(F)F)N1CCC(n2c(=O)[nH]c3ccccc32)CC1 (stereo unspecified),inactive: 4.81%
2,CC(C)c1ccc(NC2CCN(C(=O)OC(C)(C)C)CC2)cc1,inactive: -2.71%
3,CCCCn1nnnc1C(c1ccnc2ccccc12)N1CCC(n2c(=O)[nH]c3ccccc32)CC1 (stereo unspecified),inactive: 5.95%
4,COc1cc(OC)c(C(=O)NCC2(N(C)C)CCCCC2)cc1OC,inactive: 2.65%
5,CCC(c1nnnn1C(C)(C)C)N1CCC(n2c(=O)[nH]c3ccccc32)CC1 (stereo unspecified),active: 18.6%
6,O=C(NCC1(N2CCOCC2)CCCCC1)c1cc(F)c(F)cc1Cl,inactive: -0.69%
7,O=C(NCC1(N2CCOCC2)CCCCC1)c1cc2ccccc2o1,inactive: -2.47%
8,O=C(NCC1(N2CCCCC2)CCCCC1)c1ccc(Cl)nc1,inactive: 1.71%
9,O=c1[nH]c2ccccc2n1C1CCN(C(c2ccccc2OC(F)(F)F)c2nnnn2C2CCCCC2)CC1 (stereo unspecified),inactive: 9.78%
10,Cc1cc(C)cc(N(C(=O)c2ccccc2)C2CCN(C(=O)OC(C)(C)C)CC2)c1,inactive: 6.61%
11,CCOC(=O)N1CCC(Nc2ccc(OC)cc2)CC1,inactive: -0.48%
12,CCCCn1nnnc1C(c1ccc(OC)cc1)N1CCC(n2c(=O)[nH]c3ccccc32)CC1 (stereo unspecified),inactive: 6.4%
13,O=C(NCC1(N2CCCCC2)CCCCC1)c1ccc(Cl)s1,inactive: -0.77%
14,N#CC1(Nc2ccccc2)CCN(Cc2ccccc2)CC1,inactive: -4.02%
15,O=c1[nH]c2ccccc2n1C1CCN(C(c2cc3ccccc3o2)c2nnnn2C2CCCCC2)CC1 (stereo unspecified),active: 22.7%
16,O=C(OC1CN2CCC1CC2)C1c2ccccc2Oc2ccccc21 (stereo unspecified),inactive: 0.21%
17,COc1ccc(Cl)cc1C(=O)NCC1(N2CCOCC2)CCCCC1,inactive: 0.83%
18,O=C(NCC1(N2CCCCC2)CCCCC1)c1ccc(=O)[nH]c1,inactive: -1.29%
19,CCCCn1nnnc1C(CC)N1CCC(n2c(=O)[nH]c3ccccc32)CC1 (stereo unspecified),inactive: 5.14%
20,O=C(NCC1(N2CCCCC2)CCCCC1)c1cccs1,inactive: 0%
21,CCCCn1nnnc1C(c1cccs1)N1CCC(n2c(=O)[nH]c3ccccc32)CC1 (stereo unspecified),inactive: 7.06%
22,COc1ccc(C(=O)NCC2(N3CCCCC3)CCCCC2)cc1,inactive: -0.53%

row,SMILES,inhibition
1,COc1ccc(C(=O)NCC2(N3CCCCC3)CCCCC2)c(OC)c1OC,inactive: 0.88%
2,CC(C)(C)OC(=O)N1CCC(N(C(=O)c2ccccc2)c2ccc(F)cc2)CC1,inactive: 0.16%
3,CCC(c1nnnn1C1CCCC1)N1CCC(n2c(=O)[nH]c3ccccc32)CC1 (stereo unspecified),active: 19.8%
4,CSc1ccccc1C(=O)NCC1(N2CCCCC2)CCCCC1,inactive: -2.57%
5,Cc1cccc(NC2(C#N)CCN(Cc3ccccc3)CC2)c1,inactive: 2.34%
6,O=c1[nH]c2ccccc2n1C1CCN(C(c2ccccc2)c2nnnn2C2CCCCC2)CC1 (stereo unspecified),inactive: 14.4%
7,O=c1[nH]c2ccccc2n1C1CCN(C(c2cccc3ccccc23)c2nnnn2C2CCCC2)CC1 (stereo unspecified),inactive: 1.75%
8,CCOC(=O)N1CCC(Nc2cccc(C)c2)CC1,inactive: -1.78%
9,COc1cc(C(=O)NCC2(N(C)C)CCCCC2)ccc1OC(F)F,inactive: -1.53%
10,CCOc1ccc(C)cc1CN(CCCl)CCCl,inactive: -0.92%
11,CC(C)(C)n1nnnc1C(c1ccccc1)N1CCC(n2c(=O)[nH]c3ccccc32)CC1 (stereo unspecified),inactive: 3.57%
12,O=C1CCN(Cc2ccccc2)CC1,inactive: 2.9%
13,CCCCOc1ccc(C(=O)NCC2(N3CCOCC3)CCCCC2)cc1,inactive: 3.68%
14,CCCCn1nnnc1C(c1cc2ccccc2o1)N1CCC(n2c(=O)[nH]c3ccccc32)CC1 (stereo unspecified),inactive: 6.98%
15,O=P1(N(CCCl)CCCl)SCCCS1,inactive: 4.26%
16,O=C(NCC1(N2CCCCC2)CCCCC1)c1ccc(F)cc1,inactive: -1.38%
17,CCOC(=O)N1CCC(Nc2ccc(F)cc2)CC1,inactive: -0.15%
18,COc1ccc(NC2CCN(CCc3ccccc3)CC2)c(OC)c1,inactive: 3.31%
